Molecular target: T1, amyloid (aggregated Aβ1-40) (Homo sapiens, UniProt P05067)
T1 construct: Aβ1-40 (Peptide Institute, INC.) was dissolved in phosphate buffer (pH 7.4); purchased Peptide Institute, INC
Test: Measurement of affinity with amyloid: inhibition of [125I]3′-I-BTA-0 binding
Settings: [125I]3′-I-BTA-0 400 pmol/L, amyloid 1 μmol/L, 22° C., 3 hours
Protocol: Affinity of the present compounds with amyloid was examined by the following in vitro binding tests.
(1) Aβ1-40 (Peptide Institute, INC.) was dissolved in phosphate buffer (pH 7.4) and shaken at 37° C. for 62-72 hours, to obtain a 1 mg/mL suspension of aggregated Aβ (hereinafter referred to as amyloid suspension in this Example).
(3) According to the method described in a literature (Wang, Y., et al., J. Labeled Compounds Radiopharmaceut. 44, 5239 (2001)), [^125I]2-(3′-iodo-4′-aminophenyl)benzothiazole (hereinafter referred to as […]) was prepared from a labeling precursor 2-(4′-aminophenyl)benzothiazole, and dissolved in ethanol. […]
(7) The glass fiber filter used for the filtration of each sample solution was washed with a 0.1% bovine serum albumin-containing phosphate buffer (pH 7.4) (0.5 mL×5), and radioactivity of the glass fiber filter was measured with an autowell gamma system (manufactured by Aloka, Type: ARC-301B).
(8) Separately, a solution of containing 15 μmol/L of 6-Me-BTA-2, […] of [^125I]3′-I-BTA-0 and 1 μmol/L of Aβ1-40 were prepared and subjected to the same procedures as described above in (6) and (7) to measure a radioactivity level. The measured radioactivity level was defined as the background radioactivity level, and used in the calculation of the inhibition ratio (hereinafter referred to as BG). […]

The chains behind the UniProt entries cited, without tags or fusion partners. Residues count along the entry.
UniProt P05067, 672-711 limits assumed: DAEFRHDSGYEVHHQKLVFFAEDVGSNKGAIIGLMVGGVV

SMILES: Cc1ccc2c(c1)sc(-c1ccc(N(C)C)cc1)[n+]2C [Thioflavin T, reference compound]
- IC50: > 1 µM
